Laboratory results published in patent US5688774A (priority 1995, dated 1997).
Like-named read-outs stand apart in the source and are kept apart here.

Key:
rat A3 receptor [1] = biological target: T1, rat A3 receptor (Rattus norvegicus, UniProt P28647); experiment: Displacement of [^125 I]AB-MECA (or [^125 I]APNEA) binding from membranes of CHO cells stably transfected with rat A3 cDNA; conditions: for A1 /A3 (printed Ai /A3): ratio Ki (A1) / Ki (A3); for A2a /A3: ratio Ki (A2a) / Ki (A3)
T1 sequence (P28647 1-320): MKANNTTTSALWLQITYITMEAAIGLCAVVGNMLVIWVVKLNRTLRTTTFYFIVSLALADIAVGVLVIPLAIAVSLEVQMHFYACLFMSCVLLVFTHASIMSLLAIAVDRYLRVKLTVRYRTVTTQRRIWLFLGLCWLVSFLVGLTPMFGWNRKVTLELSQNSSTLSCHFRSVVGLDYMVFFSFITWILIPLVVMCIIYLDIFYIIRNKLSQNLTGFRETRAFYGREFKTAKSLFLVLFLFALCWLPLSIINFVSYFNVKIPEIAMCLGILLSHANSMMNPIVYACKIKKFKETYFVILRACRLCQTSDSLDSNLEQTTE

rat A3 receptor [2] = biological target: T1, rat A3 receptor
rat A3 receptor [3] = biological target: T1, rat A3 receptor; experiment: biochemical
rat A3 receptor [4] = biological target: T1, rat A3 receptor; set-up: expressed in transfected cells; host or cells: CHO cells, stably transfected; conditions: read-out: Kd for [^125 I]APNEA; assumed for Cheng-Prusoff (Zhou et al.); cited from earlier work

| A1 /A3 (printed Ai /A3) (rat A3 receptor [1]) | A2a /A3 (rat A3 receptor [1]) | Molecule | further results |
| --- | --- | --- | --- |
|  | > 1 | CNC(=O)[C@H]1C[C@@H](n2cnc3c(NCc4cccc(I)c4)ncnc32)[C@H](O)[C@@H]1O (relative stereo) [Compound 61, (±)-9-[2α,3β-Dihydroxy-4β-(N-Methylcarbamoyl)Cyclopent-1β-yl)]-N^6-(3-Iodobenzyl)-adenine] | A1 /A3 (printed Ai /A3) (rat A3 receptor [2]): 1.8 |
|  | 3.7 | CNc1nc(NCc2cccc(I)c2)c2ncn(C)c2n1 [Compound 11, N^6-(3-Iodobenzyl)-2-Methylamino-9-Methyladenine] | A1 /A3 (printed Ai /A3) (rat A3 receptor [2]): 0.67 |
|  | 0.66 | CN(C)c1nc(NCc2cccc(I)c2)c2ncn(C)c2n1 [Compound 12, 2-Dimethylamino-N^6-(3-Iodobenzyl)-9-Methyladenine] | A1 /A3 (printed Ai /A3) (rat A3 receptor [2]): 0.099 |
| < 1 | < 1 | CCCNc1nc(NCc2cccc(I)c2)c2ncn(C)c2n1 [Compound 13, N^6-(3 -Iodobenzyl)-9-Methyl-2-Propylaminoadenine] |  |
| < 1 |  | CCCCCCNc1nc(NCc2cccc(I)c2)c2ncn(C)c2n1 [Compound 14, 2-Hexylamino-N^6-(3-Iodobenzyl)-9-Methyladenine] |  |
| 0.0051 | 0.070 | Cn1cnc2c(NCc3cccc(I)c3)nc(Sc3ccncc3)nc21 [Compound 17, N^6-(3-Iodobenzyl)-9-Methyl-2-(4-Pyridylthio)adenine] | Ki (rat A3 receptor [2]): 166 ± 57 µM |
| 0.032 | 0.10 | N#CCCCn1cnc2c(NCc3cccc(I)c3)ncnc21 [Compound 22, N^6-(3-Iodobenzyl)-9-(3-Cyanopropyl)adenine] | Ki (rat A3 receptor [2]): 185 ± 17 µM |
| 0.13 |  | Clc1nc(NCc2cccc(I)c2)c2ncn(C3CCCO3)c2n1 (stereo not drawn) [Compound 30, 2-Chloro-N-(3-Iodobenzyl)-9-(2-Tetrahydrofuryl)-9H-Purin-6-Amine] | Ki (rat A3 receptor [3]): 3.47 ± 0.58 µM |
| 0.014 | 0.018 | CNC(=O)[C@H]1O[C@@H](n2cnc3c(NCc4cccc(NC(=O)[C@@H]5CCCN5)c4)ncnc32)[C@H](O)[C@@H]1O [Compound 65, N^6-[3-(L-Prolylamino)Benzyl]Adenosine-5'-N-Methyluronamide] | Ki (rat A3 receptor [1]): 11.7 µM |
| 18 | 31 | CNC(=O)[C@H]1O[C@@H](n2cnc3c(NNc4ccccc4)ncnc32)[C@H](O)[C@@H]1O [Compound 70, 6-(N'-phenylhydrazinyl)Purine-9-β-Ribofuranoside-5'-N-Methyluronamide] | Ki (rat A3 receptor [1]): 0.224 µM |
| 50 |  | CNC(=O)[C@H]1O[C@@H](n2cnc3c(NOc4ccccc4)ncnc32)[C@H](O)[C@@H]1O [Compound 71] | Ki (rat A3 receptor [1]): 1.35 µM |

The remaining lines, values behind:

| Molecule | A1 /A3 (printed Ai /A3) (rat A3 receptor [1]) | A2a /A3 (rat A3 receptor [1]) | further results |
| --- | --- | --- | --- |
| 9-(β-talosyl)adenine | < 1 | < 1 |  |
| Cn1cnc2c(NCc3cccc(I)c3)ncnc21 [Compound 3, N^6-(3-Iodobenzyl)-9-Methyladenine] |  | 0.046 | A1 /A3 (printed Ai /A3) (rat A3 receptor [2]): 0.12 |
| Cn1cnc2c(NCc3cccc(I)c3)nc(Cl)nc21 [Compound 6, 2-Chloro-N^6-(3-Iodobenzyl)-9-Methyladenine] |  | 0.053 | A1 /A3 (printed Ai /A3) (rat A3 receptor [2]): 0.0088 |
| Cn1cnc2c(NCc3cccc(I)c3)nc(N)nc21 [Compound 9, 2-Amino-N^6-(3-iodobenzyl)-9-methyladenine] | 0.14 | 0.080 | Ki (rat A3 receptor [2]): 40.1 ± 5.7 µM |
| Cn1cnc2c(NCc3cccc(I)c3)nc(NN)nc21 [Compound 10, 2-Hydrazido-N^6-(3-Iodobenzyl)-9-Methyladenine] | 0.050 | 0.18 | Ki (rat A3 receptor [2]): 109 ± 9 µM |
| COc1nc(NCc2cccc(I)c2)c2ncn(C)c2n1 [Compound 15, N^6-(3-Iodobenzyl)-2-Methoxy-9-Methyladenine] |  | 0.068 | A1 /A3 (printed Ai /A3) (rat A3 receptor [2]): 0.027 |
| CSc1nc(NCc2cccc(I)c2)c2ncn(C)c2n1 [Compound 16, N^6-(3-Iodobenzyl)-9-Methyl-2-Methylthioadenine] | 6.3 | 5.5 | Ki (rat A3 receptor [2]): 0.299 ± 0.074 µM |
| OCCn1cnc2c(NCc3cccc(I)c3)ncnc21 [Compound 18, N^6-(3-Iodobenzyl)-9-Hydroxyethyladenine] |  | 0.24 | A1 /A3 (printed Ai /A3) (rat A3 receptor [2]): 0.37 |
| CSc1nc(NCc2cccc(I)c2)c2ncn(C[C@@H](O)CO)c2n1 [Compound 19b, R-N^6-(3-Iodobenzyl)-9-(2,3-dihydroxypropyl)-2-methylthioadenine] | 0.16 | 9.2 |  |
| O=C(O)Cn1cnc2c(NCc3cccc(I)c3)ncnc21 [Compound 21, N^6-(3-Iodobenzyladenin-9-yl)acetic Acid] |  |  | Ki (rat A3 receptor [2]): 225 ± 17 µM |
| O[C@@H]1[C@H](O)CO[C@H]1n1cnc2c(NCc3cccc(I)c3)nc(Cl)nc21 [Compound 28, 2-Chloro-9-(b-D-erythrofuranoside)-N^6-(3-iodobenzyl)adenine] | 2.9 | 10 | Ki (rat A3 receptor [3]): 0.276 ± 0.11 µM |
| CNc1nc(NCc2cccc(I)c2)c2ncn([C@@H]3OC[C@@H](O)[C@H]3O)c2n1 [Compound 29, 9-(β-D-Erythrofuranoside)-2-Methylamino-N^6-(3-Iodobenzyl)adenine] | 0.0096 | 0.049 | Ki (rat A3 receptor [3]): 69 µM |
| CNC(=O)[C@@H]1C[C@@H](OC(C)=O)[C@H](n2cnc3c(NCc4cccc(I)c4)nc(Cl)nc32)O1 [Compound 37, 9-(2-Acetyl-3-Deoxy-β-D-5-Methyl-Ribofuronamido)-2-Chloro -N^6-(3-Iodobenzyl)adenine] | 12 | 250 | Ki (rat A3 receptor [2]): 0.0625 ± 0.031 µM |
| CNC(=O)[C@@H]1CC[C@H](n2cnc3c(NCc4ccccc4)nc(Cl)nc32)O1 [Compound 40, 2-Chloro-9-(2,3-Dideoxy-β-D-5-Methyl-Ribofuronamido)-N^6 -Benzyladenine] | 0.37 | 7.1 |  |
| CNC(=O)[C@@H]1C[C@@H](OS(C)(=O)=O)[C@H](n2cnc3c(NCc4cccc(I)c4)nc(Cl)nc32)O1 [Compound 41, 2-Chloro-9-(3-Deoxy-2-Methanesulfonyl-β-D-5-Methyl-Ribofuronamido)-N^6-(3-Iodobenzyl)adenine] |  | 5.8 | A1 /A3 (printed Ai /A3) (rat A3 receptor [2]): 0.18 |
| CNC(=O)[C@@H]1C[C@@H](O)[C@H](n2cnc3c(NCc4cccc(I)c4)nc(Cl)nc32)O1 [Compound 41b, 2-Chloro-9-(3-Deoxy-β-D-5-Methyl-Ribofuronamido)-N^6-(3-Iodobenzyl)adenine] | 31 | 140 | Ki (rat A3 receptor [2]): 0.0329 ± 0.0078 µM |
| CNC(=O)[C@@H]1C[C@H](N=[N+]=[N-])[C@H](n2cnc3c(NCc4cccc(I)c4)nc(Cl)nc32)O1 [Compound 42, 2-Chloro-9-(2'-Azido-2',3'-Dideoxy-β-D-5'-Methyl-Arabinofuronamido)-N^6 (3-Iodobenzyladenine)] | 0.067 | 4.7 |  |
| CNC(=O)[C@@H]1C[C@H](F)[C@H](n2cnc3c(NCc4cccc(I)c4)nc(Cl)nc32)O1 [Compound 44, 2-Chloro-9-(2',3'-Dideoxy-2'-Fluoro-β-D-5'-Methyl-Arabinofuronamido)-N^6-(3-Iodobenzyl)adenine] | 0.080 | 5.5 |  |
| CC(C)[Si]1(C(C)C)OC[C@H]2O[C@@H](n3cnc4c(NCc5cccc(I)c5)nc(Cl)nc43)[C@H](O)[C@@H]2O[Si](C(C)C)(C(C)C)O1 [Compound 45, 2-Chloro-9-(3,5-1,1,3,3-Tetraisopropyldisiloxyl-β-D-5-Ribofuranosyl)-N^6-(3-Iodobenzyl)adenine] | 5.1 | > 7 |  |
| CNC(=O)[C@H]1O[C@@H](n2cnc3c(NCc4cccc(I)c4)nc(Cl)nc32)[C@@H]2OC(=S)O[C@@H]21 [Compound 46, 2-Chloro-9-(2',3'-O-Thiocarbonyl-β-D-5-Methyl-Ribofuronamido)-N^6-(3-Iodobenzyl)adenine] | 15 | 71 |  |
| CNC(=O)[C@H]1O[C@@H](n2cnc3c(NCc4cccc(NC(=O)CCN)c4)ncnc32)[C@H](O)[C@@H]1O [Compound 66, N^6-[3(β-Alanylamino)Benzyl]Adenosine-5'-Methyluronamide] | 4.5 | 6.3 | Ki (rat A3 receptor [1]): 0.0229 µM |
| CNC(=O)[C@H]1O[C@@H](n2cnc3c(NCc4cccc(NC(=O)CCNC(=O)OC(C)(C)C)c4)ncnc32)[C@H](O)[C@@H]1O [Compound 67, N^6-[3-(N-6-Boc-β-Alanylamino)Benzyl]Adenosine-5'-Methyluronamide] | 96 | 42 | Ki (rat A3 receptor [1]): 0.0468 µM |
| Nc1ccc(CCNc2ncnc3c2ncn3[C@@H]2O[C@H](CO)[C@@H](O)[C@H]2O)cc1I [[^125 I]APNEA, [^125 I]N^6-2-(4-aminophenyl)ethyladenosine] |  |  | Kd (rat A3 receptor [4]): 0.017 µM |
